This series can be described thus: Thermal stability of benzalkonium, free chloride vs bound to ion exchange material. To be noted: free chloride salt. Type of series: physicochemical. An excerpt: In addition, binding of a cationic species to the backbone of the ion exchange material can provide one or both of at least two benefits. These include, but are not limited to: 1.

With “alkyldimethyl(phenylmethyl) quaternary ammonium chloride [benzalkonium chloride]”, the degradation temperature entry is “around 180 °C”.

The record behind these values is patent publication US20200269668A1, “Biologically Efficacious Compositions, Articles of Manufacture And Processes For Producing And/Or Using Same” (priority 2011, published 2020).
